Each substance was assayed on phosphodiesterase I. Settings: pH 8.

First: 5′-d (TTT TTT TTT Xp)-3′ [oligonucleotide (12)]
Second: 5′-d(TTT TTT TTT X)-3′ [oligonucleotide (5)]
The “remaining ratio (Remaining oligonucleotides, undegraded 10 mer vs time 0)” value of the first is lower: 55% for the first, 80% for the second.

In the case of “5′-d(TTT TTT TTT Xq)-3′ [oligonucleotide (17)]”, the “remaining ratio (Remaining oligonucleotides, undegraded 10 mer vs time 0)” value is reported as 100%.
